Assay results as given in patent publication US9163066B2, “Antimicrobial lytic peptides” (priority 2010, dated 2015).

Test system: red blood cells (erythrocytes)
Assay: Hemolytic activity of the peptides (hemoglobin release, absorbance at 412 nm)
Assay type: cell-based
Experimental: Hemolysis as defined herein is an in vitro assay where the compounds tendency to lyse red blood cells is determined. Presumably, the compounds that are less hemolytic will be less toxic in vivo. Increasing amounts of compound are added to solutions containing red blood cells and left for a specified time and then lysis is determined spectrophotometrically by measuring hemoglobin release.
A small volume of a suspension of erythrocytes (about 100 million) is kept on ice with a specific amount of lytic peptide. The cells are then placed in a 37° C. water bath for 10 min, vortexed and centrifuged at 1000 g for 2 min. The supernatant was removed and the amount of hemoglobin that was released was determined by the samples' absorbance at 412 nm. Control values without added peptide were subtracted from the absorbance readings.
The numerical difference between the value of the mean of hemolysis and the mean of the activity is a useful way to determine those peptides having the most desired activity.

For Cecropin A, the “Mean of Hemolysis” value was 1.1 µM.
